Here are results for 15 substances from patent publication US11925672B2, “Peptide having antioxidant activity and composition containing same” (SEMPIO FOODS COMPANY, priority 2018, dated 2024).

Entries after “also recorded” stand apart in the source; their conditions may differ.

One experiment relates to Nrf2 mRNA. Kind of experiment: Nrf2 mRNA expression level by real-time PCR in Tert-BHP-treated HEK293 cells. The experiment is classed as cell-based. The note with it: Tert-BHP 300 μM, peptide 500 μM, 18 hours; for effect on expression of Nrf2 mRNA: FIGS. 5A to 5C; for Nrf2 mRNA expression compared to positive control GSH: vs GSH. The procedure: In the present invention, the antioxidant activity was compared between the 100 types of peptides, and the change in Nrf2 mRNA expression was measured through PCR in order to select the final peptide.
An HEK293 cell (kidney cell) line was seeded at a density of 6.6×10^5/well in DMEM (Dulbecco's Modified Eagle's Medium) medium on a 6-well plate and cultured at 37° C. under 5% CO2 for 24 hours. The next day, the medium was exchanged with serum and amino-acid-free media, and then the cells were further cultured for 20 hours or longer. The cells were treated with Tert-BHP (300 μM) and 500 μM 100 types of peptides, and then cultured for 18 hours.
RNA was extracted from the cells treated with 100 types of peptides in (1) using TRIzol (Thermo Fisher Scientific). A GoScript™ Reverse Transcription System (Promega, Wisconsin, USA) was used to synthesize cDNA from the RNA. The cDNA was synthesized by performing annealing using 1 μg of RNA, 0.5 μg of an oligo dt primer, 0.5 μg of a random primer and RT-PCR pre-mixture at 25° C. for 5 minutes, extension at 42° C. for 60 minutes, and inactivation at 70° C. for 15 minutes.
(§1) PCR was performed using Maxime™ PCR PreMix (i-StarTaq) (Intron Biotechnology, Korea). Real-time PCR was performed using SsoAdvanced™ Universal SYBR® Green Supermix (Bio-Rad, USA). 100 ng of cDNA, 2 μM (pmol/μl) primers, 10 μl of 2X SsoAdvanced™ Universal SYBR® Green Supermix and DW were added to the PCR plate well. Then, the temperature was cyclically adjusted to 95° C. for 3 minutes, 95° C. for 10 seconds and 58° C. for 40 seconds for a total of 40 cycles. A PCR reaction was performed using a CFX96 Touch™ Real-Time PCR Detection System (Bio-Rad, California, USA), and fluorescence intensity was measured at the end of each cycle.

A further experiment deals with SOD2 mRNA. Kind of experiment: SOD2 mRNA expression level by real-time PCR in Tert-BHP-treated HEK293 cells. The experiment is classed as cell-based. Conditions: Tert-BHP 300 μM, peptide 500 μM, 18 hours; for effect on SOD2 mRNA expression: FIG. 6; for SOD2 mRNA expression compared to positive control GSH: vs GSH. Here is the method:
The expression of SOD2 mRNA as another antioxidant factor was determined. The cell line culture, RNA extraction, cDNA synthesis and PCR experiments were performed in the same manner as in Experimental Example 5 above. A detailed description thereof is given below.
An HEK293 cell (kidney cell) line was seeded at a density of 6.6×10^5/well in DMEM (Dulbecco's Modified Eagle's Medium) medium on a 6-well plate and cultured at 37° C. and 5% CO2 for 24 hours. The next day, the medium was exchanged with serum and amino-acid-free media, and then the cells were further cultured for 20 hours or longer. The cells were treated with Tert-BHP (300 μM) and 500 μM 100 types of peptides, and then cultured for 18 hours.
RNA was extracted from the cells treated with 100 types of peptides in (1) using TRIzol (Thermo Fisher Scientific). A GoScript™ Reverse Transcription System (Promega, Wisconsin, USA) was used to synthesize cDNA from the RNA. The cDNA was synthesized by performing annealing with 1 μg RNA, 0.5 μg of an oligo dt primer, 0.5 μg of a random primer, and RT-PCR pre-mixture at 25° C. for 5 minutes, extension at 42° C. for 60 minutes, and inactivation at 70° C. for 15 minutes.
as §1, with “using the” for “using a”
A general note: Real-time PCR tracks product formation cycle by cycle.

In the case of “γ-GLU-ASN (EN; gamma-glutamyl linkage; The peptide is a formed by condensation of the gamma-carboxy group of L-glutamic acid with the amino group of L-asparagine.)”, in the experiment on Nrf2 mRNA, the “effect on expression of Nrf2 mRNA” value is given as “improve the expression of Nrf2 mRNA” and the “Nrf2 mRNA expression compared to positive control GSH” value was “comparable or superior”. In addition, in the experiment with SOD2 mRNA, the “effect on SOD2 mRNA expression” value is on record as “increased SOD2 mRNA expression” and the “SOD2 mRNA expression compared to positive control GSH” value is recorded as “comparable or superior”.
Turning to “γ-GLU-ASP (ED; gamma-glutamyl linkage; The peptide is a formed by condensation of the gamma-carboxy group of L-glutamic acid with the amino group of L-aspartic acid.)”, in the experiment on Nrf2 mRNA, the “effect on expression of Nrf2 mRNA” value is listed as “improve the expression of Nrf2 mRNA” and the “Nrf2 mRNA expression compared to positive control GSH” value is recorded as “comparable or superior”.
On to “7-GLU-MET(O) (EM; gamma-glutamyl linkage; methionine sulfoxide; In the peptide, Met is methionune sulfoxide(Met(O)). The peptide is a formed by condensation of the gamma-carboxy group of L-glutamic acid with the amino group of Met(O).; (2)..(2) methionine sulfoxide) [γ-GLU-MET(O)]”, for which the “effect on expression of Nrf2 mRNA” value in the experiment with Nrf2 mRNA is reported as “improve the expression of Nrf2 mRNA”. Also, in the experiment on SOD2 mRNA, the “effect on SOD2 mRNA expression” value was “increased SOD2 mRNA expression” and the “SOD2 mRNA expression compared to positive control GSH” value is “comparable or superior”.
As to “γ-GLU-LEU (EL; gamma-glutamyl linkage; The peptide is a formed by condensation of the gamma-carboxy group of L-glutamic acid with the amino group of L-leucine.)”, in the experiment on Nrf2 mRNA, the “effect on expression of Nrf2 mRNA” value was “improve the expression of Nrf2 mRNA” and the “Nrf2 mRNA expression compared to positive control GSH” value is given as “comparable or superior”. For the same substance, in the experiment with SOD2 mRNA, the “effect on SOD2 mRNA expression” value is listed as “increased SOD2 mRNA expression” and the “SOD2 mRNA expression compared to positive control GSH” value is listed as “comparable or superior”.
In the case of “γ-GLU-THR (ET; gamma-glutamyl linkage; The peptide is a formed by condensation of the gamma-carboxy group of L-glutamic acid with the amino group of L-threonine.)”, in the experiment with Nrf2 mRNA, the “effect on expression of Nrf2 mRNA” value is given as “improve the expression of Nrf2 mRNA” and the “Nrf2 mRNA expression compared to positive control GSH” value was “comparable or superior”. For the same substance, in the experiment on SOD2 mRNA, the “effect on SOD2 mRNA expression” value is listed as “increased SOD2 mRNA expression” and the “SOD2 mRNA expression compared to positive control GSH” value was “comparable or superior”.
As for “γ-GLU-TYR (EY; gamma-glutamyl linkage; The peptide is a formed by condensation of the gamma-carboxy group of L-glutamic acid with the amino group of L-tyrosine.)”, in the experiment on Nrf2 mRNA, the “effect on expression of Nrf2 mRNA” value is listed as “improve the expression of Nrf2 mRNA” and the “Nrf2 mRNA expression compared to positive control GSH” value is recorded as “comparable or superior; also recorded: statistically significant activity”. For the same substance, in the experiment on SOD2 mRNA, the “effect on SOD2 mRNA expression” value is “increased SOD2 mRNA expression” and the “SOD2 mRNA expression compared to positive control GSH” value was “comparable or superior; also recorded: statistically significant activity”.
For the substance “γ-GLU-ALA (EA; gamma-glutamyl linkage; The peptide is formed by condensation of the gamma-carboxy group of L-glutamic acid with the amino group of L-alanine.)”, in the experiment on Nrf2 mRNA, the “effect on expression of Nrf2 mRNA” value was “improve the expression of Nrf2 mRNA” and the “Nrf2 mRNA expression compared to positive control GSH” value is “comparable or superior”. Also, in the experiment on SOD2 mRNA, the “effect on SOD2 mRNA expression” value was “increased SOD2 mRNA expression” and the “SOD2 mRNA expression compared to positive control GSH” value was “comparable or superior”.
Regarding “γ-GLU-VAL-NH2 (EV; gamma-glutamyl linkage; C-terminal amide; In the peptide, Val is L-valine amide(Val-NH2). The peptide is a formed by condensation of the gamma-carboxy group of L-glutamic acid with the amino group of L-valine amide.; (2)..(2) valine amide)”, in the experiment on Nrf2 mRNA, the “effect on expression of Nrf2 mRNA” value is on record as “improve the expression of Nrf2 mRNA” and the “Nrf2 mRNA expression compared to positive control GSH” value is reported as “comparable or superior”. In addition, in the experiment with SOD2 mRNA, the “effect on SOD2 mRNA expression” value is “increased SOD2 mRNA expression” and the “SOD2 mRNA expression compared to positive control GSH” value is reported as “comparable or superior”.
Turning to “γ-GLU-ARG (ER; gamma-glutamyl linkage; The peptide is a formed by condensation of the gamma-carboxy group of L-glutamic acid with the amino group of L-arginine.)”, in the experiment on Nrf2 mRNA, the “effect on expression of Nrf2 mRNA” value was “improve the expression of Nrf2 mRNA” and the “Nrf2 mRNA expression compared to positive control GSH” value is given as “comparable or superior”.
Consider “γ-GLU-MET (EM; gamma-glutamyl linkage; peptide identified from yeast hydrolysate)”, for which, in the experiment with SOD2 mRNA, the “effect on SOD2 mRNA expression” value is on record as “increased SOD2 mRNA expression” and the “SOD2 mRNA expression compared to positive control GSH” value was “comparable or superior”.
The like results for “γ-GLU-LYS (EK; gamma-glutamyl linkage; peptide identified from yeast hydrolysate)” were, in that order, “increased SOD2 mRNA expression” and “comparable or superior”.
Take “γ-GLU-GLU (EE; gamma-glutamyl linkage; The peptide is a formed by condensation of the gamma-carboxy group of L-glutamic acid with the amino group of L-glutamic acid.)”: in the experiment on Nrf2 mRNA, the “effect on expression of Nrf2 mRNA” value is given as “improve the expression of Nrf2 mRNA” and the “Nrf2 mRNA expression compared to positive control GSH” value is listed as “comparable or superior”.
The like results for “γ-GLU-PHE (EF; gamma-glutamyl linkage; The peptide is a formed by condensation of the gamma-carboxy group of L-glutamic acid with the amino group of L-phenylalanine.)” were, in that order, “improve the expression of Nrf2 mRNA” and “comparable or superior”.
Taken in the same sequence, the figures for “γ-GLU-VAL (EV; gamma-glutamyl linkage; The peptide is a formed by condensation of the gamma-carboxy group of L-glutamic acid with the amino group of L-valine.)” were “improve the expression of Nrf2 mRNA” and “comparable or superior”.
As to “α-GLU-HIS (EH; alpha-linked; peptide identified from yeast hydrolysate)”, the “effect on expression of Nrf2 mRNA” value in the experiment with Nrf2 mRNA was “no effect”.
